For orientation: IC50 means the concentration at which inhibition is half-maximal. Low values mean inhibition by little substance, high ones a need for much substance.

By UniProt entry, the sequences of proteins in these tests, tags left out.
UniProt P00533, whole entry: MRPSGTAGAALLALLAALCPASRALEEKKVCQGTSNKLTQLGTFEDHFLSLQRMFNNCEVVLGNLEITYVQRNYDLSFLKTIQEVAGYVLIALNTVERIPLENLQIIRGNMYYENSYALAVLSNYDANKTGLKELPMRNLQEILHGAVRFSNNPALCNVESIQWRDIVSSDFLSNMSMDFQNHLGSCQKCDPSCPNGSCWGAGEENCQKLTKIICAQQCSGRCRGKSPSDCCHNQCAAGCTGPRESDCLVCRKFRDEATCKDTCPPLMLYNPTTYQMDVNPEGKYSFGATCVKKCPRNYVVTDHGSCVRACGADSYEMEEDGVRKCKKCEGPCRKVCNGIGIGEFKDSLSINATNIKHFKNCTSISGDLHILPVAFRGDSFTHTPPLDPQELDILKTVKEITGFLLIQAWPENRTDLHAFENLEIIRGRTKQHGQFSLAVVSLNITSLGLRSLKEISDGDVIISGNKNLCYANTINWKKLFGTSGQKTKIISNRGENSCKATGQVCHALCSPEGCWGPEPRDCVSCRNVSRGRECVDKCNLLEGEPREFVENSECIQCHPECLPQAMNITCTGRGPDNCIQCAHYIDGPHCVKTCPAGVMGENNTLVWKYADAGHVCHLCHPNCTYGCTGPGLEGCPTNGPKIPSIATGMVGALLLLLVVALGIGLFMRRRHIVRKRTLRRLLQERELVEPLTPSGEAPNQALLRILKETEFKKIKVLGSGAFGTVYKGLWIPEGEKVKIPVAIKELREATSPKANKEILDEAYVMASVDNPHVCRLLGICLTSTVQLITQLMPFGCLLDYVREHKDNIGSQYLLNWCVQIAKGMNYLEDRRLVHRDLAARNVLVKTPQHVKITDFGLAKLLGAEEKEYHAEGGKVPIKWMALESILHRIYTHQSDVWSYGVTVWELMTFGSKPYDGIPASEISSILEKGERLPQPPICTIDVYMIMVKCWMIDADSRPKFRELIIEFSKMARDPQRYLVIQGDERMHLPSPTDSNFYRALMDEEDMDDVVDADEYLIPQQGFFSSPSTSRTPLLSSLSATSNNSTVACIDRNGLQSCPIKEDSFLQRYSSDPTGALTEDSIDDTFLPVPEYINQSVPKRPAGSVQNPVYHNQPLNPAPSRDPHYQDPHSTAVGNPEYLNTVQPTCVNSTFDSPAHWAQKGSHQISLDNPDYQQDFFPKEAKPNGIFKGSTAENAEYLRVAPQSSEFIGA

The text below walks through data of BindingDB's records for doi:10.1016/0968-0896(96)00107-1 (Hebrew University of Jerusalem, 1996).

The assay addresses Epidermal growth factor receptor (Homo sapiens, UniProt P00533). The assay can be described thus: EGFR assay. The note with it: pH 7.6; 22 °C. How it is done: The activity of EGFR, preactivated with EGF, is measured by its ability to transfer terminal phosphate from [gamma-32P]ATP to poly(GAT) substrate.

As for `COc1cc2ncnc(Nc3cccc(Cl)c3)c2cc1OC`, the IC50 came to 900 nM.

On to `COc1cc2ncnc(Nc3cccc(F)c3)c2cc1OC`, for which it took 90 nM to reach half-maximal inhibition (IC50). This IC50 is about 10-fold lower than that of the compound before.
